Among the data in US9271963B2, “Selective inhibitors of human corticosteroid synthases” (UNIVERSITAT DES SAARLANDES, priority 2005, dated 2016) are IC50 values, retold here.

Sequences of proteins named here, by UniProt entry; tags and fusion partners are left off. Residues count along the entry.
UniProt P15538, 25-503: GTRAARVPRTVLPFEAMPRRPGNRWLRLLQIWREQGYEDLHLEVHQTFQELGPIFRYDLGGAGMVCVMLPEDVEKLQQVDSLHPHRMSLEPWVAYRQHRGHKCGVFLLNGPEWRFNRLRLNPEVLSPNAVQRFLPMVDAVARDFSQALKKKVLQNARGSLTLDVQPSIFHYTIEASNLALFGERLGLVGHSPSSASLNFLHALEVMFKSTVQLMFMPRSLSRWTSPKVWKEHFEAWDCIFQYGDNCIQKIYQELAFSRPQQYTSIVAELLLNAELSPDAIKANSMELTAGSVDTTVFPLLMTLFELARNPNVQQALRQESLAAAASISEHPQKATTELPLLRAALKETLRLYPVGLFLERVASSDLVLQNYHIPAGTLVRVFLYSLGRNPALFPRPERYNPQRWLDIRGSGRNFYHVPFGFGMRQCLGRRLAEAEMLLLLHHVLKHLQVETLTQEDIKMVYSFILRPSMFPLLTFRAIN

Read-outs that look alike come from different tables or passages of the source.

This test addresses CYP11B1 (Homo sapiens (Human), UniProt P15538). Put plainly: Inhibition test in V79 MZh11B1 cells (hamster fibroblasts expressing human CYP11B1). The class given is cell-based.

With `C1=C(n2ccnc2)CCc2ccccc21` [Compound 45, 1-(3,4-Dihydronaphthalene-2-yl)-1H-imidazole], the IC50 by setting is: (Table 2, deoxycorticosterone substrate 100 nM, read-out: IC50 value V79 11B1 hCY11B1) 638 nM; (read-out: IC50 in V79MZh 11B1 cells (CYP11B1 inhibition)) 206 to 805 nM.
